Laboratory results from US10562878B2, “Cycloalkylamines as monoamine reuptake inhibitors” (Sunovion Pharmaceuticals Inc., priority 2006, dated 2020).
Where a name gives a salt, the structure may show the parent alone.

Chains of the proteins cited; added tags and fusions are not shown.
UniProt P23975, whole entry: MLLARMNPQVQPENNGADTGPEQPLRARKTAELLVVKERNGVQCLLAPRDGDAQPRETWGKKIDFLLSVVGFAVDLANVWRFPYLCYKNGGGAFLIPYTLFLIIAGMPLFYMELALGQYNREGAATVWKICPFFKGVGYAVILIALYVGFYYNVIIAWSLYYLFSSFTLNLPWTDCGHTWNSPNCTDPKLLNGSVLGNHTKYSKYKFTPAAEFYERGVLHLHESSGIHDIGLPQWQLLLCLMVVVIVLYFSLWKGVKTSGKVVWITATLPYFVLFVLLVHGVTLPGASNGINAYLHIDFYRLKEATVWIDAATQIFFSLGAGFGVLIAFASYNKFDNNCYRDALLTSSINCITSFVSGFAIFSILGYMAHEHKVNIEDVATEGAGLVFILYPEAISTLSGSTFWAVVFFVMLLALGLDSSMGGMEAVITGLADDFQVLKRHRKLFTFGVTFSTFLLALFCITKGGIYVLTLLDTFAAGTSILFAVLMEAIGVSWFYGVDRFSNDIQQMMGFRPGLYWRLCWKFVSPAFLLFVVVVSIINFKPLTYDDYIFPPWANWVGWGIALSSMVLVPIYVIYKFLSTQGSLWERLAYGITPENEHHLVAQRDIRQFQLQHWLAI
UniProt P31645, whole entry: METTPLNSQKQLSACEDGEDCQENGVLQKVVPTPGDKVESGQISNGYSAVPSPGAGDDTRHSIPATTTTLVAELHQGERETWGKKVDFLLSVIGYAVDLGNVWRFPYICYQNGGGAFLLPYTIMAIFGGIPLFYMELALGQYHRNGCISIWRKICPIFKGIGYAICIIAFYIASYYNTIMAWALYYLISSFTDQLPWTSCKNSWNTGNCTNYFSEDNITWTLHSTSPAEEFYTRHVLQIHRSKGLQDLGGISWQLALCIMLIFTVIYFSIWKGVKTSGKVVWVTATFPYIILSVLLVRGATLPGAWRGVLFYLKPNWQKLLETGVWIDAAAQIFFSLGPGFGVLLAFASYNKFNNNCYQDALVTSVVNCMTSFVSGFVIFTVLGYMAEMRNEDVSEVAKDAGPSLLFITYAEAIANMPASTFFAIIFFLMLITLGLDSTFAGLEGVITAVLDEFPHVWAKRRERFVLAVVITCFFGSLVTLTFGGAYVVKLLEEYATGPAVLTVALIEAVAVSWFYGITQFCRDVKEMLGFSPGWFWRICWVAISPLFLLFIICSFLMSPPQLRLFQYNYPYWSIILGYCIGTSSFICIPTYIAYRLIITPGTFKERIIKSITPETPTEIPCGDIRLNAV
UniProt Q01959, whole entry: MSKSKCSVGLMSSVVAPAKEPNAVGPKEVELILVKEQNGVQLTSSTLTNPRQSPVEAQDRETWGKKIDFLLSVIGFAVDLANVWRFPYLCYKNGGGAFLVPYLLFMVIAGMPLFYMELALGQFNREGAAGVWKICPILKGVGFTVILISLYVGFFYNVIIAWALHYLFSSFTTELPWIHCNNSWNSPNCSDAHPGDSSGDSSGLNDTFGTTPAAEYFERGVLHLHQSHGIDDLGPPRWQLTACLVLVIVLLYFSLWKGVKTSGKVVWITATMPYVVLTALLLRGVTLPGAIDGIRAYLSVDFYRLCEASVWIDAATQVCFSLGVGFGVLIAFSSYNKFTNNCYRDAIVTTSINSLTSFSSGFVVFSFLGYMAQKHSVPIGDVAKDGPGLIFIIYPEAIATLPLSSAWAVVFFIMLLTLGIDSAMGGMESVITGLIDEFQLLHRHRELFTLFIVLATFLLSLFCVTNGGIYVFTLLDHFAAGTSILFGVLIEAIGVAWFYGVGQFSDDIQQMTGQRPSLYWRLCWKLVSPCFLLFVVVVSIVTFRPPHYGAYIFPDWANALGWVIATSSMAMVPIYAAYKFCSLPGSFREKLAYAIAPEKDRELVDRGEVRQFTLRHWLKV

What follows are compounds tested against human norepinephrine transporter (Homo sapiens (Human), UniProt P23975) (assay: Norepinephrine functional uptake assay, recombinant human transporter in HEK293 or MDCK cells). Conditions: hNET IC50.
Format: cell-based

C[C@@H]1CCCC[C@@]1(CN(C)C)c1ccc(Cl)c(Cl)c1 (racemic) [Compound 175, (±) cis-1-(1-(3,4-dichlorophenyl)-2-methylcyclohexyl)-N,N-dimethylmethanamine hydrochloride] was tested, and the IC50 was 15 nM.

Same assay, conditions: read-out: hNET IC50

In order of falling IC50:
1. CC(C)CC(N)C1(c2ccc(Cl)cc2)CCCCC1 (single isomer, unassigned) [21 E1, 1-(1-(4-chlorophenyl)cyclohexyl)-3-methylbutan-1-amine]  7610 nM
2. CC(C)CC(N)C1(c2ccc(Cl)cc2)CCCCC1 (stereo not shown) [Compound 21, 1-(1-(4-chlorophenyl)cyclohexyl)-3-methylbutan-1-amine]  7190 nM
3. CC(C)CC(N)C1(c2ccc(Cl)cc2)CCCCC1 (single isomer, unassigned) [21 E2, 1-(1-(4-chlorophenyl)cyclohexyl)-3-methylbutan-1-amine]  6040 nM
4. CSc1ccc(C2(CN(C)C)CCCCC2)cc1 [Compound 52, N,N-dimethyl-1-(1-(4-(methylthio)phenyl)cyclohexyl)methanamine]  1060 nM
5. CNCC1(c2ccc(Cl)c(Cl)c2)CCCC(F)(F)C1 (single isomer, unassigned) [205 E1, 1-(1-(3,4-dichlorophenyl)-3,3-difluorocyclohexyl)-N-methylmethanamine]  999 nM
6. CCC(NC)C1(c2ccc(Cl)c(Cl)c2)CCCCC1 (single isomer, unassigned) [62 E1, 1-(1-(3,4-dichlorophenyl)cyclohexyl)-N-methylpropan-1-amine]  414 nM
7. CNCC1(c2ccc(Cl)c(Cl)c2)CCCC(F)(F)C1 (single isomer, unassigned) [205 E2, 1-(1-(3,4-dichlorophenyl)-3,3-difluorocyclohexyl)-N-methylmethanamine]  326 nM
8. CC(C)C(N)C1(c2ccc(Cl)cc2)CCCCC1 (racemic) [Compound 14, 1-(1-(4-chlorophenyl)cyclohexyl)-2-methylpropan-1-amine]  257 nM
9. CNCC1(c2ccc(Cl)c(Cl)c2)CCCC1 [Compound 88, (1-(3,4-dichlorophenyl)cyclopentyl)-N-methylmethanamine]  171 nM
10. CCC(NC)C1(c2ccc(Cl)c(Cl)c2)CCCCC1 (single isomer, unassigned) [62 E2, 1-(1-(3,4-dichlorophenyl)cyclohexyl)-N-methylpropan-1-amine]  121 nM
11. CN(C)CC1(c2ccc(Cl)c(Cl)c2)CCCC(F)(F)C1 (single isomer, unassigned) [206 E1, 1-(1-(3,4-dichlorophenyl)-3,3-difluorocyclohexyl)-N,N-dimethylmethanamine]  121 nM

The compounds below were run against human serotonin transporter (Homo sapiens (Human), UniProt P31645) (assay: Serotonin functional uptake assay, recombinant human transporter in HEK-293 cells). Conditions: Human serotonin transporter uptake; read-out: hSERT IC50.
Format: cell-based

In order of rising IC50:
1. cis-1-(1-(3,4-dichlorophenyl)-3-methoxycyclohexyl)-N-methylmethanamine [Compound 196]  1440 nM
2. cis-1-(1-(3,4-dichlorophenyl)-3-methoxycyclohexyl)-N-methylmethanamine [Compound 200]  2050 nM

Same assay, conditions: read-out: hSERT IC50

CNC[C@]1(c2ccc(Cl)c(Cl)c2)CCC[C@](C)(O)C1 (relative stereo) [Compound 198, cis-3-(3,4-dichlorophenyl)-1-methyl-3-((methylamino)methyl)cyclohexanol] was tested, and the IC50 was 2320 nM.

The compounds below were run against human dopamine transporter (Homo sapiens (Human), UniProt Q01959) (assay: Dopamine functional uptake assay, recombinant human transporter in CHO-K1 or HEK293 cells). Conditions: Human dopamine transporter uptake; read-out: hDAT IC50.
Format: cell-based

In order of falling IC50:
1. cis-1-(1-(3,4-dichlorophenyl)-3-methoxycyclohexyl)-N-methylmethanamine [Compound 200]  1100 nM
2. cis-1-(1-(3,4-dichlorophenyl)-3-methoxycyclohexyl)-N-methylmethanamine [Compound 196]  911 nM
3. cis-3-(3,4-dichlorophenyl)-3-((dimethylamino)methyl)-1-methylcyclohexanol [Compound 199]  462 nM

Same assay, conditions: read-out: hDAT IC50

For CC(C)C(N)C1(c2ccc(Cl)cc2)CCCCC1 (racemic) [Compound 14, 1-(1-(4-chlorophenyl)cyclohexyl)-2-methylpropan-1-amine], the IC50 was 46 nM.
